{
  "source": "patent US8378104B2",
  "about": "(OSI Pharmaceuticals, LLC, priority 2010, dated 2013)",
  "origin": "cited, not measured here",
  "tested_on": "picryl chloride-induced ear swelling",
  "conditions": "picryl chloride-induced ear swelling mouse model; cited from earlier work",
  "data": [
    {"smiles": "COc1cc(O)c2c(c1)/C=C/C[C@H](O)[C@H](O)C(=O)/C=C\\C[C@H](C)OC2=O", "values": [
      {"measurement": "inflammation in ear swelling model", "result": "relieves inflammation"}
    ]}
  ]
}
